From US6689803B2, “Compositions and methods for treating surgical adhesions” (Angiotech Pharmaceuticals, Inc., priority 1996, dated 2004)

Tested on: neutrophils
Test: Neutrophil viability (LDH release)
Conditions: 5 to 100 mM, 1 hour at 37° C.

Substance: aluminum fluoride
- LDH release above controls: did not show any increased level of LDH release
